Experimental findings from PubChem BioAssay (Tox21) are described below.

Where “and” joins values, the source holds several entries; their conditions need not be identical. Equal values may be shown once. This is a selection; strong and weak results do not stand in their true shares. Inconclusive results are not listed. Calls of active or inactive are those of the source. Calls follow the shape of the dose curve; as a rule, active = well fitted curve in the direction sought with a large enough effect in the signal ratio in the repeat runs (not every such curve was filed as active); inconclusive = weak or mixed curves, or a change in a side signal; inactive = no such curve, though single readings can be large or run the other way; the % refers to the signal ratio.
% is scaled to controls: 0 for no effect and ±100 for the full control effect.

A short description of the first assay: qHTS assay to identify small molecule agonists of the NFkB signaling pathway (AID 1159509). The following applies: NFkB-bla ME-180 cells, beta-lactamase FRET ratio, 5 h; at 61 µM (top of the series). From the text:
National Center for Advancing Translational Sciences [NCATS]
NIH Chemical Genomics Center [NCGC]
U.S. Environmental Protection Agency [EPA]
National Institutes of Environmental Health Sciences [NIEHS]
National Toxicology Program [NTP]
U.S. Food and Drug Administration [FDA]
Transcription factors and their stimulated target gene expression play pivotal roles across many cellular processes including responses to environmental stimuli. Proper regulation of associated pathways is critical to maintain cell health and function. Constitutive activation of transcription factor pathways has been implicated in tumors as it may block cellular functions such as apoptosis and lead to invasion and metastasis. One important transcription factor that stimulates gene expression in response to cytokines, UV radiation, and other stimuli is nuclear factor-kappa B (NFkB). To measure activation of the NFkB pathway, the CellSensor NFkB-bla ME-180 cell line (Life Technologies, Carlsbad, CA) that stably expresses beta-lactamase reporter gene under the regulation of a NF-kB response element was used. This assay allows measurement of the NFkB pathway activity induced by compounds in a ME-180 cell line. This system quantitates NF-kB activity using a FRET-based assay system where beta-lactamase expression disrupts FRET, allowing for fluorescent measurement of activity. This cell line has been used to screen the Tox21 10K compound library and to identify compounds that induce the NFkB pathway activity.
Tox21 Assay Protocol Summary:
NFkB-bla ME-180 cells were dispensed at 2,000 cells/6 uL of assay medium per well into black wall/clear-bottom 1536-well plates using a Multidrop Combi (ThermoFisher Scientific, Waltham, MA) dispenser. After the assay plates were incubated at 37 C and 5% CO2 for an overnight, 23 nL of compounds dissolved in DMSO, positive controls or DMSO only was transferred to the assay plate by a Pintool station (Kalypsys, San Diego, CA). The assay plates were incubated at 37 C and 5% CO2 for 5 hr. One uL of LiveBLAzer B/G FRET substrate (Life Technologies) was added using a Flying Reagent Dispenser (Aurora Discovery, San Diego, CA) and the plates were incubated at room temperature for 1.5 hr. Fluorescence intensity (405 nm excitation, 460 nm and 530 nm emissions) was measured using an Envision plate reader (PerkinElmer, Shelton, CT).
On to `COP(C)(=O)OC`, for which the activation is inactive: -0.173%. In the case of `CCOP(=O)(CC)OCC`, the activation is inactive: 0.143%.

As for `C/C1=C2N=C(/C=C3N=C(/C(C)=C4\[N-][C@@](C)([C@@H]5N=C1[C@](C)(CCC(=O)NC[C@@H](C)OP(=O)([O-])O[C@H]1[C@@H](O)[C@@H](n6cnc7cc(C)c(C)cc76)O[C@@H]1CO)[C@H]5CC(N)=O)[C@@](C)(CC(N)=O)[C@@H]4CCC(N)=O)[C@@](C)(CC(N)=O)[C@@H]\3CCC(N)=O)C(C)(C)[C@@H]/2CCC(N)=O.[C-]#N.[Co+3]`, the activation was inactive: -0.0846%. Take `Cc1ccc([N+](=O)[O-])cc1[N+](=O)[O-]`: the activation is inactive: -1.15% and inactive: -0.524%. For `CP(=O)(O)OCCC[Si](O)(O)O`, the activation is inactive: 0.0286%. `O=[N+]([O-])OCC(CO[N+](=O)[O-])(CO[N+](=O)[O-])CO[N+](=O)[O-]`: the activation is inactive: -0.143%. In the case of `CC(C)OP(C)(=O)OC(C)C`, the activation is inactive: -0.166% and inactive: -0.489%.

Take `OCCSCCO`: the activation is inactive: -0.55%. As to `CC(C)N(CCO)C(C)C`, the activation was inactive: 0.379%. For `COc1ccc([N+](=O)[O-])cc1[N+](=O)[O-]`, the activation was inactive: -0.334%.

For `Cc1c([N+](=O)[O-])cccc1[N+](=O)[O-]`, the activation is inactive: -0.004% and inactive: -0.487%.

Staying with this assay, now noted: NFkB-bla ME-180 cells, beta-lactamase FRET ratio, 5 h; at 78.8 µM (top of the series).
For the molecule `COP(C)(=O)OC`, the activation is inactive: -0.114%.

In the case of `N=C(N)N[N+](=O)[O-]`, the activation is inactive: 0%.

Consider `Nc1cc([N+](=O)[O-])cc([N+](=O)[O-])c1O`, for which the activation was inactive: -0.243%.

On to `OCCSCCO`, for which the activation was inactive: -0.672%.
